E-selectin induc – induces E-selectin expression in human endothelial cells; hit rate 0.37% among 260,000; AID 686992; P16581; activation, % at 7.58 µM; HUVEC E-selectin immunofluorescence imaging; normalized: neutral wells 0, TNF-alpha wells 100;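 active means mean E-selectin-positive cell signal at least 10% of the positive control, reached in at least 60% of replicates, without over 20% cell loss; inconclusive means no rule given, readout overlaps actives, possibly toxicity-flagged; inactive means the rest, including those meeting only one limit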
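Read-out: % PE-positive cells | Test system: HUVEC | Doses: One compound dose added by pin transfer | Buffer or medium: EGM-2 over gelatin coat | Signal: Immunofluorescence imaging | Benchmarks: TNF-alpha, DMSO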
SIRT5 inh – inhibitors of human sirtuin-5 desuccinylase; Purified SirT5, succinyl-peptide AMC, trypsin-coupled fluorescence; hit rate 1.1% among 330,000; Q9NXA8; inhibition, % at 15 µM; in the data active means inhibition above about 15%; inconclusive means no clear call, values can overlap the other calls
MLL AF4-AF9 inh – inhibitors of human MLL-AF4/AF9 interaction | AlphaScreen, biotin-AF4 peptide binding to FLAG-AF9 | hit rate 0.47% among 350,000 | P42568 | inhibition, % at 10 µM;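 active means every replicate reaching a set inhibition limit, whatever the replicate mean, cut at about 25% in these data; inconclusive means mean inhibition reaches that limit but some replicates miss it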
UUG fidelity – yeast start codon fidelity modulation | S. cerevisiae UUG-firefly luciferase reporter, luminescence/redox ratio | activity score, % at 18.7 µM | hit rate 0.13% among 350,000 | AID 602363;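 active means replicate mean at a twofold rise or more, about +100% in these data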;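 further: firefly luciferase made from a UUG start codon reports start codon fidelity; reporter light over untreated wells divided by growth signal over untreated wells; some hits fall short of that in this replicate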
RAD52 inh – inhibitors of human RAD52 DNA annealing; hit rate 0.46% among 360,000; inhibition, % at 18.7 µM; recombinant RAD52 DNA annealing, FRET fluorescence; AID 651710;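 active means every replicate showing at least 50% inhibition; inconclusive means mean inhibition at least 50% but not in every replicate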
RAD54 branch – inhibitors of human RAD54 branch migration. Q92698. RAD54 Holliday junction branch migration, FAM/BHQ fluorescence. inhibition, % at 10.4 µM. hit rate 0.14% among 360,000;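 active means mean normalized replicate activity at least 40 and at least half of replicates scoring 40 or more; inconclusive means only one of the two criteria met; inactive means mean below 40 and under half of replicates reaching 40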;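 further: inhibitors cause a drop in the FAM fluorescence signal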
RAD52 DNA ctr – DNA binding artifact in RAD52 counter-screen | shares compounds with RAD52 inh | Salmon sperm DNA/acridine orange FP displacement | AC50, µM | hit rate 8% among 1,000 | AID 652128;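 active means fitted half-maximal concentration for signal loss at or below twice the highest dose tested, in every separate run, actives reach about 64 µM in these data; inconclusive means runs disagree, or flat partial signal loss, or poor fit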
Each line names hits and unclear results; the compound was inactive in the other large screens (follow-up assays come after a bar, where they were run); ! = repeats disagree. Most compounds without a hit are left out; they make up all but 1.8% or so of the library.

Cc1sc2ccccc2c1CC1=NCCN1	MLL AF4-AF9 inh inconclusive
Cc1[nH]c2ccccc2c1C1=CCNCC1	MLL AF4-AF9 inh 38, RAD52 inh 65 (no result: E-selectin induc) | RAD52 DNA ctr inactive
C1=C(c2ccccc2)CCNC1	none (no result: E-selectin induc)
CC(C)N1CCN(c2ccc(O)cc2)CC1	RAD52 inh 83 | RAD52 DNA ctr inactive
COc1ccc(OCC(=O)N2CCN(C(C)C)CC2)cc1	none (no result: E-selectin induc, SIRT5 inh, MLL AF4-AF9 inh, RAD52 inh)
COc1ccc(OC(=O)N(C)C[C@H]2OCc3ccccc3-c3c(n(C)c4ccccc34)C(=O)N([C@@H](C)CO)C[C@H]2C)cc1	none (no result: UUG fidelity, RAD54 branch)
CCOC(=O)c1c(C)n(Cc2ccccc2)c2ccc(OCC(O)CNC(C)(C)C)cc12 (centres undefined)	RAD52 inh 52 (no result: E-selectin induc) | RAD52 DNA ctr inactive
O=C(Cc1ccccn1)N1CCCCN2[C@H](CO)[C@@H](c3ccc(-c4ccccc4)cc3)[C@@H]2C1	none
Cc1cc(N2CCNC[C@@H]2C)ccc1N1CC[C@@H](O)C1	RAD52 inh 96 (no result: MLL AF4-AF9 inh, UUG fidelity, RAD54 branch) | RAD52 DNA ctr inactive
CN1OC[C@@H]2CN[C@H](c3ccccc3Br)C[C@@H]21	none
CN1CC[C@@H]2CN[C@H](c3ccccc3Br)C[C@@H]21	RAD52 inh 71 (no result: MLL AF4-AF9 inh, UUG fidelity, RAD54 branch) | RAD52 DNA ctr inactive
CCCNC(=O)[C@H]1[C@H](CO)[C@H]2Cn3c(cccc3=O)[C@H]2N1C	none (no result: UUG fidelity)
CCOc1ccc(C(C)=O)cc1Cn1ccsc1=N	RAD52 inh 64 | RAD52 DNA ctr inactive
COC(=O)[C@@H]1[C@@H](CO)[C@@H]2Cn3c(ccc(-c4ccncc4)c3=O)[C@H]1N2S(=O)(=O)c1ccccc1F	none (no result: UUG fidelity)
O=C(O)[C@H]1[C@H](CO)[C@H]2Cn3c(ccc(-c4cccnc4)c3=O)[C@@H]1N2C(=O)Nc1cc(F)ccc1F	none (no result: UUG fidelity)
COc1ccc(C#Cc2ccc([C@H]3[C@@H](CO)N4CCCCN(C(=O)Cc5cccnc5)C[C@H]34)cc2)cc1	none
COc1ccc(C#Cc2ccc([C@@H]3[C@H]4CN(C(=O)Cc5cccnc5)CCCCN4[C@H]3CO)cc2)cc1	none
OC12ONC(c3ccccn3)C1N1CCC2CC1 (centres undefined)	RAD52 inh 80 | RAD52 DNA ctr inactive
Oc1ccc(-[n+]2c(-c3ccccc3)cc(-c3ccccc3)cc2-c2ccccc2)cc1	MLL AF4-AF9 inh inconclusive, RAD52 inh 60 (no result: SIRT5 inh) | RAD52 DNA ctr inactive
O=C([O-])c1ccc(-[n+]2c(-c3ccccc3)cc(-c3ccccc3)cc2-c2ccccc2)cc1	RAD52 inh 57 (no result: SIRT5 inh) | RAD52 DNA ctr inactive
Clc1ccc2sc(C3CCNCC3)nc2c1	RAD52 inh 56 (no result: E-selectin induc) | RAD52 DNA ctr inactive
COc1cc2c(cc1OC)-c1c(OC)c(OC)cc3c1C(C2)N(C)CC3 (centres undefined)	RAD52 inh 71, RAD54 branch 62 (no result: E-selectin induc) | RAD52 DNA ctr inactive
COc1cc2c(cc1OC)-c1c3c(cc4c1[C@@H](C2)N(C)CC4)OCO3	RAD52 inh 100, RAD54 branch 104 | RAD52 DNA ctr inactive
COc1ccc(CC2c3cc(OC)c(OC)cc3CCN2C)cc1O (centres undefined)	none
O=C(O)[C@H]1[C@H](CO)[C@H]2Cn3c(ccc(-c4cccc(F)c4)c3=O)[C@@H]1N2CCc1ccccc1	none (no result: UUG fidelity)
COc1ccc(CCN)cc1O	none
NCCc1cc(O)c(O)cc1O	RAD52 inh 90! | RAD52 DNA ctr inactive
O=C(Cc1cccnc1)N1CCCCN2[C@@H](CO)[C@@H](c3ccc(C#CC4CCCC4)cc3)[C@@H]2C1	none
